# Laboratory results from patent publication US20220411759A1, “ENDOCRINE DIFFERENTIATION-INDUCING MOLECULE” (President and Fellows of Harvard College, priority 2019, published 2022).
# B1: BMP2-7: recombinant human BMP2/BMP-7 heterodimer, BMP pathway activator (protein, UniProt P12643 283-396; P18075 293-431, looked up)
# Bone morphogenetic protein 2: QAKHKQRKRLKSSCKRHPLYVDFSDVGWNDWIVAPPGYHAFYCHGECPFPLADHLNSTNHAIVQTLVNSVNSKIPKACCVPTELSAISMLYLDENEKVVLKNYQDMVVEGCGCR
# Bone morphogenetic protein 7: STGSKQRSQNRSKTPKNQEALRMANVAENSSSDQRQACKKHELYVSFRDLGWQDWIIAPEGYAAYYCEGECAFPLNSYMNATNHAIVQTLVHFINPETVPKPCCAPTQLNAISVLYFDDSSNVILKKYRNMVVRACGCH
# modifications: heterodimer
# How the values were obtained:
# [1] = system: differentiating hESC clusters; experiment: Nanostring mRNA expression of endocrine, hormone and progenitor markers in differentiating clusters; assay type: cell-based, human; details: added at stage 4; relative to control
# Description: (§1) Factors were tested in either 6-well plates placed on a rocker, or in Biott ABLE Bioreactors (Stemgent). IWR1-endo (Sigma-Aldrich) was used at 5 μM. XAV939 (Santa Cruz, SC-296704A) was used at 5 μM. Recombinant human BMP2/BMP7 (Thermo-Fisher) was used at […]. when added during stage 4, CHIR99021 was used at a concentration of […].
# Cells were collected for RNA extraction in RLT Lysis Buffer (Qiagen) and frozen at −80° C. RNA was extracted using the RNeasy Mini Kit (Qiagen), according the manufacturer's instructions—including DNA digestion, and 100 ng of RNA was used for each reaction. Nanostring set up was performed according to the protocol for the nCounter XT Gene Expression Assay. Data was analyzed in the nSolver 2.5 Software. All genes were normalized to housekeeping genes (ITCH, RPL15, RPL19, TCEB1, UBE2D3). Analysis of changes in gene expression of markers for endocrine and progenitor cells was done using R.
# [2] = system: HUES8 human embryonic stem cells; experiment: Flow cytometry of cell proportions during directed differentiation of hESCs into β cells; assay type: cell-based
# Description: (§2) HUES8 ([…]) human embryonic stem cells and human induced pluripotent stem cells (hiPSCs) from line 1016 (person) were obtained from the Human Embryonic Stem Cell Facility and iPS Core Facility of the Harvard Stem Cell Institute. Cells were differentiated into beta like cells in suspension as described previously^37. Briefly, 150Xe^6 cells were suspended in 300 ml of supplemented mTeSR1 and grown in spinning flasks (70 rpm, 37° C., 5% CO2) for 48 hours prior to the beginning of a stepwise differentiation protocol:
# Stage 4—5 days in S3 medium supplemented with KGF (50 ng/ml), Sant1 (0.25 μM) and retinoic acid (0.1 μM).
# Stage 5—7 days in BE5 medium supplemented with Beta Cellulin (20 ng/ml). XXI (1 μM), Alk5ill(10 μM) and T3 (1 μM). Sant1 (0.25 μM) was added in the first three days, and retinoic acid was added at 0.1 μM in the first three days, then at 0.025 μM.
# Stage 6—CMRLS medium supplemented with Alk5iII (10 μM) and T3 (1 μM).
# In many of the experiments following cell collection for sc-RNAseq, the protocol was slightly modified to add Y-27632 (10 μM) at stage 3-5, and ActivinA (5 ng/ml) in stage 4. In some cases, an extra day at stage 4 was also added. For the presented functional and flow cytometry analysis in stage 6, CMRLS based media was replaced with S3 medium, without supplements.
# as §1
# (§3) Differentiated cell clusters were dispersed into single-cell suspension by incubation in TrypLE Express at 37° C., quenched with PBS+2% FBS, fixed with 4% PFA for 30 min at 4° C., washed once in PBS, and resuspended in PBS+2% FBS. Staining was done in 96-well plates. […] Cells were then washed three times in PBS+5% Donkey serum and analyzed using either the BD Accuri c6 flow cytometer or the LSR-II flow cytometer (BD Biosciences). […]
# [3] = system: human induced pluripotent stem cells (hiPSCs) from line 1016; experiment: Flow cytometry of cell proportions during directed differentiation of hiPSC-1016; assay type: cell-based; details: stage 4
# Description: as §2, §1
# as §3, with “plates. Cells were incubated in blocking buffer (PBS+0.1% Triton X-100+5% donkey serum) at 4° C. for 30-60 min.” for “plates.”
# [4] = factor added during stage 4, flow cytometry at end of stage 4, vs control
molecule,measurement,setting,value
B1,expression of endocrine genes,[1],downregulation
same,number / proportion of CHGA+ endocrine cells,[2]; [4],nearly twofold decrease
same,number / proportion of PDX1+/NKX6.1+ progenitors,[2]; [4],increased by more than twofold
same,effect on CHGA+ endocrine cells and PDX1+/NKX6.1+ progenitors like that at stage 4,[2]; factor added during stage 5,not observed
same,proportion of hiPSC-1016 derived PDX+NKX6.1+ cells,[3],increases
